Data reported in patent US20210276987A1, “PHARMACEUTICAL AGENTS FOR USE IN SMOKING AND TOBACCO CESSATION” (Washington State University, priority 2018, published 2021).

The chains behind the UniProt entries cited, without tags or fusion partners. Where a name states a change or a piece, a line headed by the entry shows the natural chain unless it says otherwise.
UniProt P10632, whole entry: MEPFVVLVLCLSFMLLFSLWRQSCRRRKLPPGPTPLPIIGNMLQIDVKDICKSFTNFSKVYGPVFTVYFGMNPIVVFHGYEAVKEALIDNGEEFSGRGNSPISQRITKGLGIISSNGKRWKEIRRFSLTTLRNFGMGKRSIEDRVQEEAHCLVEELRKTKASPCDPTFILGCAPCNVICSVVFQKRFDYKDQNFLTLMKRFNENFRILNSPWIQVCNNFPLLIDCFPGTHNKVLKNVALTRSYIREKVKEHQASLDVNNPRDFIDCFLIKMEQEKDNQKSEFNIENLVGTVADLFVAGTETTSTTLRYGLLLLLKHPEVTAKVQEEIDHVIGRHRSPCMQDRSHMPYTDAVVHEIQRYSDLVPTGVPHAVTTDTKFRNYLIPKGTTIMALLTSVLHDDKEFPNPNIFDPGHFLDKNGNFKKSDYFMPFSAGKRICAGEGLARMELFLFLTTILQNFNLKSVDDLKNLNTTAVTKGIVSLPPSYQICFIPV
UniProt P10635, whole entry: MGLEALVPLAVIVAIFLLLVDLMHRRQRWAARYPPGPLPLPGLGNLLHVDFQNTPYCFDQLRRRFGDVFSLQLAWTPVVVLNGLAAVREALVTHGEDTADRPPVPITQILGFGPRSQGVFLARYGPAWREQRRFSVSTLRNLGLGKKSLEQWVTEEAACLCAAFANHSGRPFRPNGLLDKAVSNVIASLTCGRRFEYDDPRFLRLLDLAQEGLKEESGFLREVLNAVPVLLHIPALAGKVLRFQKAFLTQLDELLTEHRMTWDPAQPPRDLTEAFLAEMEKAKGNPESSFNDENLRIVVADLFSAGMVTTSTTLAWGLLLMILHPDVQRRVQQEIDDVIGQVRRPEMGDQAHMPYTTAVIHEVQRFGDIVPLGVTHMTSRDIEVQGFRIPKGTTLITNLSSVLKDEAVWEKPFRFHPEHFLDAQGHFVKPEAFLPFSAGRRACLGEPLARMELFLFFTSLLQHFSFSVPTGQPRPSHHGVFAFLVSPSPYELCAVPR
UniProt P33261, whole entry: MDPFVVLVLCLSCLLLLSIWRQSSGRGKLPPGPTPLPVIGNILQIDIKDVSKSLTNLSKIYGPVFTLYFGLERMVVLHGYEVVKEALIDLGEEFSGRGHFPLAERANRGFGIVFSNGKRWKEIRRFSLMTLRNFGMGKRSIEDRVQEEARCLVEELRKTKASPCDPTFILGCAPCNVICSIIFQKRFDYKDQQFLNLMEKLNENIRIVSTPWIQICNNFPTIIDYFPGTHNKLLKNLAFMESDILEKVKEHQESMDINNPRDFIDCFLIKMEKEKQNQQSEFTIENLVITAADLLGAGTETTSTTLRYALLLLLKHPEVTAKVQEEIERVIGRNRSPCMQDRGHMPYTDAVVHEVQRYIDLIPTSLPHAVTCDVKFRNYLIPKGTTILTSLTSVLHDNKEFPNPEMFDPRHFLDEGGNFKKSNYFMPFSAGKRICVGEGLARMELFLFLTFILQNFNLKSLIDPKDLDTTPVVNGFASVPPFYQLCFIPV
UniProt P05181: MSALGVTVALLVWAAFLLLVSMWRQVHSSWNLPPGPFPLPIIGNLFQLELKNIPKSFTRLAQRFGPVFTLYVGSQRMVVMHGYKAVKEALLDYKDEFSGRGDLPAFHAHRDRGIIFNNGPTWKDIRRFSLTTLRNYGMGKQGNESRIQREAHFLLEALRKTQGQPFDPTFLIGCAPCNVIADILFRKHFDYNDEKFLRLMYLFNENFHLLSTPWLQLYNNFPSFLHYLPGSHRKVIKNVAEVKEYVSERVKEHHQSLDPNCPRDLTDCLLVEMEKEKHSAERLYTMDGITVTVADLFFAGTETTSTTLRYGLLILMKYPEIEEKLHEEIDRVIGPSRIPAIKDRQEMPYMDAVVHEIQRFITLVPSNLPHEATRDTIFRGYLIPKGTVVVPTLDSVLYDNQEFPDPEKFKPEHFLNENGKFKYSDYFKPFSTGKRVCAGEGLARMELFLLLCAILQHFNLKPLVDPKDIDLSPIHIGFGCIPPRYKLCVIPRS
UniProt P11712, whole entry: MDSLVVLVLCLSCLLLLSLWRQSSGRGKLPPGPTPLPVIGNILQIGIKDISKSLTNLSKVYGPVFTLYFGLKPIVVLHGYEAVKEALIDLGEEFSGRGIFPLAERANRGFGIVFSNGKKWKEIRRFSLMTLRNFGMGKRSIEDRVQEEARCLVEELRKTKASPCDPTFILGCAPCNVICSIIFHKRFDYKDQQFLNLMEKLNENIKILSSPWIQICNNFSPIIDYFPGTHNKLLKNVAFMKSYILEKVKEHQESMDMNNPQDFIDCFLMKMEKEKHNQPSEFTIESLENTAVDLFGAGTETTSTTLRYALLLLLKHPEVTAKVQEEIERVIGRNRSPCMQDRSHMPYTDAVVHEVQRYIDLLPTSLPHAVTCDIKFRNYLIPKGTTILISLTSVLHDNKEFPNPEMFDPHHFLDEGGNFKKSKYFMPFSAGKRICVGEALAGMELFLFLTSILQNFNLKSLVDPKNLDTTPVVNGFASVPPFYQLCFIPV
UniProt P20813: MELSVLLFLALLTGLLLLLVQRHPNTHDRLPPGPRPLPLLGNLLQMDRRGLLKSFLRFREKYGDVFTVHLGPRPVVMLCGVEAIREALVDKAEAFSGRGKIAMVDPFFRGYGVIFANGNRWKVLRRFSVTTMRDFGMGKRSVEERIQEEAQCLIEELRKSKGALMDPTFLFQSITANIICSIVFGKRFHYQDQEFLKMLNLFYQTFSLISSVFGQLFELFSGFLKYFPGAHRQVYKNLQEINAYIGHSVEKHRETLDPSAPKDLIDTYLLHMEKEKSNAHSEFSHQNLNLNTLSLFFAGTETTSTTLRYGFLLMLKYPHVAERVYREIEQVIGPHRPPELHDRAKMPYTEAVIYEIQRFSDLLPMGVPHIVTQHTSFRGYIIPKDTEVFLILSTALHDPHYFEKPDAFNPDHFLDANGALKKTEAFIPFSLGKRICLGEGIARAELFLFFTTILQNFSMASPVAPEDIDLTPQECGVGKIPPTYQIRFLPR
UniProt P05177, whole entry: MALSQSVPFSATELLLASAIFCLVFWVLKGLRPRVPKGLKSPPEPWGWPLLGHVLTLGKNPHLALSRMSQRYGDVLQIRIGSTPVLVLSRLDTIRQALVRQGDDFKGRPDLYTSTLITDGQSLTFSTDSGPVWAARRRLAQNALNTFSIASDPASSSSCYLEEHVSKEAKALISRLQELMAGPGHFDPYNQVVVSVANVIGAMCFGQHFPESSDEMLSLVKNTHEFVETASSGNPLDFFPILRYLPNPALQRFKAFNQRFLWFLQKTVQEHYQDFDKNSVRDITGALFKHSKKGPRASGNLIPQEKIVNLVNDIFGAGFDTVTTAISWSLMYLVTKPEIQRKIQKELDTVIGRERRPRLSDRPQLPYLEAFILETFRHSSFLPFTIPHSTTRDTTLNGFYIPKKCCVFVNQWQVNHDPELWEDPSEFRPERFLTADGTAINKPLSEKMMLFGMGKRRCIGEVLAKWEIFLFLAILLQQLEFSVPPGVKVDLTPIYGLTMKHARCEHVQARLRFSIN

How the values were obtained:
CYP2A6 [1] = target: T1, CYP2A6 (Homo sapiens, UniProt P11509); conditions: both, microsomes, pH 7.4
T1 sequence (P11509 1-494): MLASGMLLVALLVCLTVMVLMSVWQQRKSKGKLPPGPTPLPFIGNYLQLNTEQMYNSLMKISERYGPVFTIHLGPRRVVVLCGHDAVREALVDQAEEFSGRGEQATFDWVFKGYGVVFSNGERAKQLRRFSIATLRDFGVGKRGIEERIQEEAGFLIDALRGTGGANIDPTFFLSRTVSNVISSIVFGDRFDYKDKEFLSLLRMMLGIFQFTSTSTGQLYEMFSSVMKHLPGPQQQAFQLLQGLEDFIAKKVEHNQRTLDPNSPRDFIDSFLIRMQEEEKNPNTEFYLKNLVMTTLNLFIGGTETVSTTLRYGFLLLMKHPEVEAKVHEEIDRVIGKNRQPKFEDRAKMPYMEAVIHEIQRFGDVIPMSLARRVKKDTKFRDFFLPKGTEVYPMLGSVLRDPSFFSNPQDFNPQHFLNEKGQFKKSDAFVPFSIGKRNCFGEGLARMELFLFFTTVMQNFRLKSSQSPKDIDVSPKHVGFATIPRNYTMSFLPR

CYP2A6 [2] = target: T1, CYP2A6; assay: biochemical; conditions: IC50 against CYP2A6; human liver microsomes
CYP2C8 = CYP2C8 (Homo sapiens, UniProt P10632)
CYP2D6 = CYP2D6 (Homo sapiens, UniProt P10635); conditions: both, microsomes, pH 7.4
CYP2C19 [3] = target: T2, CYP2C19 (Homo sapiens, UniProt P33261); conditions: both, microsomes, pH 7.4
CYP2E1 = CYP2E1 (Homo sapiens, UniProt P05181)
CYP2C9 = CYP2C9 (Homo sapiens, UniProt P11712); conditions: both, microsomes, pH 7.4
CYP2B6 = CYP2B6 (Homo sapiens, UniProt P20813)
CYP1A2 = CYP1A2 (Homo sapiens, UniProt P05177); assay: CYP1A2 inhibition assay, human liver microsomes, phenacetin probe (cocktail); conditions: Table 6
CYP2C19 [4] = target: T2, CYP2C19; assay: CYP2C19 inhibition assay, human liver microsomes, omeprazole probe (cocktail); conditions: Table 6
[5] = both, human, microsomes, pH 7.4

NCc1ccc(-c2cnccc2-c2ccco2)s1 [Compound AD, (5-(4-(furan-2-yl)pyridin-3-yl)thiophene-2-yl)methanamine Dihydrochloride]
pIC50 (CYP2A6 [1]): 6.80 | pIC50 (CYP2A6 [2]): ≥ 6.80

Cc1ccncc1C#CCN [Compound C, 3-(4-methylpyridin-3-yl)prop-2-yn-1-amine]
IC50 ratio CYP2C8/CYP2A6 (CYP2C8; [5]): 156 | IC50 ratio CYP2D6/CYP2A6 (CYP2D6): 44 | IC50 ratio CYP2C19/CYP2A6 (CYP2C19 [3]): 145 | IC50 ratio CYP2E1/CYP2A6 (CYP2E1; [5]): 345 | IC50 ratio CYP2C9/CYP2A6 (CYP2C9): 655 | IC50 ratio CYP2B6/CYP2A6 (CYP2B6; [5]): 364

NCC#Cc1cnccc1-c1ccco1 [Compound M, 3-(4-Furan-2-yl-pyridin-3-yl)-prop-2-ynylamine Dihydrochloride]
IC50 ratio CYP2C8/CYP2A6 (CYP2C8; Table 6): 13 | IC50 ratio CYP2E1/CYP2A6 (CYP2E1; Table 6): 3.4 | IC50 ratio CYP1A2/CYP2A6 (CYP1A2): 2.5 | IC50 ratio CYP2B6/CYP2A6 (CYP2B6; Table 6): 8.9 | IC50 ratio CYP2C19/CYP2A6 (CYP2C19 [4]): 6.6

pIC50: −log10 of the molar value. Structures can show the parent of a compound that is named as a salt. Where two headings read alike, the source gives them in different places.
